The list shows a part of the results, in another mix than the full data. Records with an inconclusive call do not appear. Entries that show only a call come without a potency. Calls of active or inactive are those of the source. The call rests on the fitted dose curve; tested in HEK293 cells.
Potency means the concentration at half of the fitted maximal effect.

The experiment in a line: qHTS for Inhibitors of binding or entry into cells for Lassa Virus. To be noted: Lassa virus pseudotyped entry inhibition, cell-based qHTS; series mostly up to 49.2 µM. (qHTS replaces the single test concentration by a dilution series.)
Regarding `CCC(=O)N(c1ccccc1)C1(COC)CCN(CCn2nnn(CC)c2=O)CC1`, the Potency entry was “inactive”.

With `CN(CCCl)CCCl`, the Potency was active: 3.16 µM.
